Values joined by “and” are separate entries in the source; they are usually repeats but may differ in a detail not shown here. Identical values can stand only once. Counter-ions that a name gives are not always drawn.
What follows are molecules tested on rumen fluid. Details: not given.
For `CCC1(C2OC(C3OC(O)(COC(=O)NCCc4ccccc4)C(C)CC3C)CC2C)CCC(C2(C)CCC3(CC(O)C(C)C(C(C)C(OC)C(C)C(=O)O)O3)O2)O1` (stereo not drawn) [Monensin A, 2-phenethylurethane], the “Relative levels of propionate (C3) to acetate + butyrate (C2 + C4)” value (shortened to “Relative levels of propionate (C3)”) was 187%. `CCC1(C2OC(C3OC(O)(COC(=O)Nc4ccc(Br)cc4)C(C)CC3C)CC2C)CCC(C2(C)CCC3(CC(O)C(C)C(C(C)C(OC)C(C)C(=O)O)O3)O2)O1` (stereo not drawn) [Monensin A, 4-bromophenylurethane, 4-bromophenylaminocarbonyloxy-(0-11)-monensin, sodium salt] was tested, and the “Relative levels of propionate (C3)” value was 165%. With `COC(C(C)C(=O)O)C(C)C1OC2(CCC(C)(C3CCC(C)(C4OC(C5OC(O)(COC(=O)NC(C)c6ccccc6)C(C)CC5C)CC4C)O3)O2)CC(O)C1C` [Monensin B, (R)-1-phenethylurethane] the “Relative levels of propionate (C3)” value was 167%. For `CC[C@@]1([C@@H]2O[C@@H]([C@H]3O[C@@](O)(CO)[C@H](C)C[C@@H]3C)C[C@@H]2C)CC[C@H]([C@]2(C)CC[C@]3(C[C@H](O)[C@@H](C)[C@@H]([C@@H](C)[C@@H](OC)[C@H](C)C(=O)O)O3)O2)O1` [Monensin], the “Relative levels of propionate (C3)” value was 162% and 165%. `CC[C@@H](C(=O)O)[C@@H]1O[C@@H]([C@@H](C)[C@H](O)[C@H](C)C(=O)[C@H](CC)[C@H]2O[C@]3(C=C[C@@H](O)[C@]4(CC[C@@](C)([C@H]5CC[C@](O)(CC)[C@H](C)O5)O4)O3)[C@H](C)C[C@@H]2C)[C@@H](C)C[C@@H]1C` [Narasin, reference compound] was tested, and the “Relative levels of propionate (C3)” value was 166%.

Same assay, conditions: 2-phenethyl urethane(natural product)
In the case of `COC(C(C)C(=O)O)C(C)C1OC2(CCC(C)(C3CCC(C)(C4OC(C5OC(O)(COC(=O)NCCc6ccccc6)C(C)CC5C)CC4C)O3)O2)CC(O)C1C` (stereo not drawn) [Monensin B, 2-phenethylurethane], the “Relative levels of propionate (C3)” value is reported as 129% and 146%.

— patent US4263427A, “Monensin urethane derivatives” (priority 1979, dated 1981)
